Biological target: D(2) dopamine receptor (Homo sapiens, UniProt P14416)

Chains of the proteins cited; added tags and fusions are not shown.
UniProt P14416, whole entry: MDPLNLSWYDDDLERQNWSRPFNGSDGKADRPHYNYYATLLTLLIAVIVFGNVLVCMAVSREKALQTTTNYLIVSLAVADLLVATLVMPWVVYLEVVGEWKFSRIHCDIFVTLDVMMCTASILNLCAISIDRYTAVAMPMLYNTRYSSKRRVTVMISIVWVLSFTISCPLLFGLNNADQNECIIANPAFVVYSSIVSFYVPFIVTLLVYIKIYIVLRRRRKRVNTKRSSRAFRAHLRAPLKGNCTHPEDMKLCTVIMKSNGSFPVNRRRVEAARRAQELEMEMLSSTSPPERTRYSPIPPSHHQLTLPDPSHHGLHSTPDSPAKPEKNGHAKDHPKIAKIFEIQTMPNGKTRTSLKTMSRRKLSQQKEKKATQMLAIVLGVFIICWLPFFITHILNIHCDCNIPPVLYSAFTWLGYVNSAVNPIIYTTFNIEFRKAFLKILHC

Compound	Ki [nM]
CCCN1CCc2cccc3c2[C@H]1Cc1cccc(O)c1-3	789
CCCN1CCc2cccc3c2[C@@H]1Cc1cccc(O)c1-3 [CAS_132-66-1]	68

Reference: BindingDB's records for doi:10.1016/0014-2999(93)90365-o (University of Toronto, 1993)
